pKi: −log10 of the molar value.

Protein sequences, listed by entry. Tags and fused reporters are not part of them. Residues count along the entry.
UniProt P00760, 24-246 limits assumed: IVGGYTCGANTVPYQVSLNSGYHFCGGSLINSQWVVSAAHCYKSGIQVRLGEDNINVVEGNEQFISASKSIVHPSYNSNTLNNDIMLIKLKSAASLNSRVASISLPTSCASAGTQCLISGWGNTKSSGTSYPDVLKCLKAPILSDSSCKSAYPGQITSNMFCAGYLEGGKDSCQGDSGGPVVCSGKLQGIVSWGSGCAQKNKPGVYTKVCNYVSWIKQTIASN

From patent US6362216B1, “Compounds which inhibit tryptase activity” (Array Biopharma Inc., priority 1998, dated 2002) come the findings set out here.

For test [1], the target named is Bovine pancreatic Trypsin (TPCK-treated) (Bos taurus, UniProt P00760). The test is described as follows: Bovine pancreatic trypsin inhibition, N-α-Benzoyl-L-Arg-pNA substrate. The note with it: read-out: Trypsin Ki; 50 mM Tris-HCl, pH 8.2, 20 mM CaCl2. The protocol: (§1) Protease inhibition was assayed according to published procedures with minor modifications using various proteases and specific chromogenic peptide p-nitroanilide substrates. Assays were performed in Costar ultra-low cluster 96-well microtiter plate (Costar Corning Corp., Cambridge Mass.). Each protease was incubated with various concentrations of the test compound for 15 min. at 37° C. or as otherwise indicated, in specific assay buffer, and the residual activity was then measured by addition of the substrate. p-Nitroaniline produced by the proteolysis was determined by measuring the change in absorbance at 405 nm on a SpectraMAX 340 plate reader (Molecular devices, Sunnyvale, Calif.).
(§2) 1. The inhibition constant, Ki is calculated from individual data points using the equation for a tight-binding inhibitor (See Beith, “Proteinase Inhibitors-Proceedings of 2nd Int. Res. Conference”, Fritz, et al. eds., New York, p.4463-4469 (1974)): […]
2. Other inhibition data (Ki>>[E]o), the Ki is calculated from using the equations for a competitive inhibitor: [formula] […]
Bovine pancreatic Trypsin (TPCK-treated) activity was determined by using N-α-Benzoyl-L-Arg-pNA in 50 mM Tris-HCl, pH 8.2, 20 mM CaCl2 (See Somorin, et al., J. Biochem. 85, 157-162 (1979)).
(§3) The inhibition constant (Ki) of the test compounds against each proteolytic enzyme was determined according to Zitnik et al., Biochem. Biophys. […]

The target of test [2] is Human lung tryptase. Description: Human lung tryptase inhibition, chromogenic GPR-pNA substrate. The note with it: read-out: Tryptase Ki; tryptase 1 nM, GPR-pNA 320 μM, 50 mM Tris-HCl pH 8.0, 37° C. The protocol:
as §1, §2
[note: [E]o is determined by active site titration of enzyme] […]
(§4) 2. Other inhibition data (Ki>>[E]o), the Ki is calculated from using the equations for a competitive inhibitor: [formula]
IC50 is determined by fitting the individual inhibition data point to Sigmoid or four-parameter curve-fit equations. […]
as §3

In test [3] the target is Human plasma thrombin (Homo sapiens, UniProt P00734). Description: Human plasma thrombin inhibition, H-D-Phe-Pip-Arg-pNA substrate. The note with it: read-out: Thrombin Ki; 50 mM Tris-HCl, pH 8.3, 100 mM NaCl, 1% BSA. The protocol: as §1, §2, §4
Human plasma thrombin activity was determined by using H-D-Phe-Pip-Arg-pNA in 50 mM Tris-HCl, pH 8.3, 100 mM NaCl, 1% BSA (See Lottenberg, et al., Meth. Enzymol. 80, 341-361 (1981)).
as §3

For the molecule `N=C(N)c1ccc2[nH]c(CC(=O)Nc3ccc(N)cc3)nc2c1`, the pKi in test [1] is 4.85; in test [2], 5.52; in test [3] it was under 4.00.
